Source: patent publication US20260382605A1, “REVERSIBLE MACROCYCLIC KINASE INHIBITORS” (published 2026)

By UniProt entry, the sequences of proteins in these tests, tags left out. Residues count along the entry.
UniProt P06239, whole entry: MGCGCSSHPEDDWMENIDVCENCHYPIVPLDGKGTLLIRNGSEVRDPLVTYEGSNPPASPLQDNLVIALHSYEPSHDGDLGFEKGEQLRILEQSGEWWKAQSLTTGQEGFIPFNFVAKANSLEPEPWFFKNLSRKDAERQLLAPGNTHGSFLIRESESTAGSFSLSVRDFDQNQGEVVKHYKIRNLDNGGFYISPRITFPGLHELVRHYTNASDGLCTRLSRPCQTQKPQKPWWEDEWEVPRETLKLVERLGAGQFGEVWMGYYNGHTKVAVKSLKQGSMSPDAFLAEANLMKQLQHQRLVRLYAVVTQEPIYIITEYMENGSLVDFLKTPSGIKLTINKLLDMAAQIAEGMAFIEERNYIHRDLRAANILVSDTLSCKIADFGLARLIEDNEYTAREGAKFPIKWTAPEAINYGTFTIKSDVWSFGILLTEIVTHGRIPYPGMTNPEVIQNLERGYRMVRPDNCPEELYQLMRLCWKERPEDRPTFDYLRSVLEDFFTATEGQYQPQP
UniProt P11362, 398-822 limits assumed: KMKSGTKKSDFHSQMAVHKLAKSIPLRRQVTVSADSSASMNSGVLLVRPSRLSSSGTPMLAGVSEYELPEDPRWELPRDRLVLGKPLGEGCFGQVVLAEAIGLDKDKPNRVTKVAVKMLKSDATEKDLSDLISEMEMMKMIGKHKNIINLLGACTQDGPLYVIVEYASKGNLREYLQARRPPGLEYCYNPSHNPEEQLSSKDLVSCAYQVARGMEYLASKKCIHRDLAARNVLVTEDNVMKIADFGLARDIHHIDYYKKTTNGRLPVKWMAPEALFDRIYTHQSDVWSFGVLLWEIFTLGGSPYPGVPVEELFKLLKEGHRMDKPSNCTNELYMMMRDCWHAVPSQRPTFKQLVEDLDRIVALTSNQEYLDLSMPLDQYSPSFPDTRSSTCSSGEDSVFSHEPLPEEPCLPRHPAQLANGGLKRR
UniProt P22607, 436-806 limits assumed: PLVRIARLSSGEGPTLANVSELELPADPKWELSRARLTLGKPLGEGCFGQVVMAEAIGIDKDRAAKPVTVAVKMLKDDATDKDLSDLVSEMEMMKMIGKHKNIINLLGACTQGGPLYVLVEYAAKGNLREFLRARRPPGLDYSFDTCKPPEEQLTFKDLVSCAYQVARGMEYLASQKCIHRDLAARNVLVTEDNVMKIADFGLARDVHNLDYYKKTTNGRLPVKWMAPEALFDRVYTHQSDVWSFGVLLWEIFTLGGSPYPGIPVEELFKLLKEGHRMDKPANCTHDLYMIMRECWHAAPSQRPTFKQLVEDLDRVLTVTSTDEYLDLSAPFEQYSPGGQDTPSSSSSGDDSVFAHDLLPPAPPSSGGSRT
UniProt P35968, 20-1356 limits assumed: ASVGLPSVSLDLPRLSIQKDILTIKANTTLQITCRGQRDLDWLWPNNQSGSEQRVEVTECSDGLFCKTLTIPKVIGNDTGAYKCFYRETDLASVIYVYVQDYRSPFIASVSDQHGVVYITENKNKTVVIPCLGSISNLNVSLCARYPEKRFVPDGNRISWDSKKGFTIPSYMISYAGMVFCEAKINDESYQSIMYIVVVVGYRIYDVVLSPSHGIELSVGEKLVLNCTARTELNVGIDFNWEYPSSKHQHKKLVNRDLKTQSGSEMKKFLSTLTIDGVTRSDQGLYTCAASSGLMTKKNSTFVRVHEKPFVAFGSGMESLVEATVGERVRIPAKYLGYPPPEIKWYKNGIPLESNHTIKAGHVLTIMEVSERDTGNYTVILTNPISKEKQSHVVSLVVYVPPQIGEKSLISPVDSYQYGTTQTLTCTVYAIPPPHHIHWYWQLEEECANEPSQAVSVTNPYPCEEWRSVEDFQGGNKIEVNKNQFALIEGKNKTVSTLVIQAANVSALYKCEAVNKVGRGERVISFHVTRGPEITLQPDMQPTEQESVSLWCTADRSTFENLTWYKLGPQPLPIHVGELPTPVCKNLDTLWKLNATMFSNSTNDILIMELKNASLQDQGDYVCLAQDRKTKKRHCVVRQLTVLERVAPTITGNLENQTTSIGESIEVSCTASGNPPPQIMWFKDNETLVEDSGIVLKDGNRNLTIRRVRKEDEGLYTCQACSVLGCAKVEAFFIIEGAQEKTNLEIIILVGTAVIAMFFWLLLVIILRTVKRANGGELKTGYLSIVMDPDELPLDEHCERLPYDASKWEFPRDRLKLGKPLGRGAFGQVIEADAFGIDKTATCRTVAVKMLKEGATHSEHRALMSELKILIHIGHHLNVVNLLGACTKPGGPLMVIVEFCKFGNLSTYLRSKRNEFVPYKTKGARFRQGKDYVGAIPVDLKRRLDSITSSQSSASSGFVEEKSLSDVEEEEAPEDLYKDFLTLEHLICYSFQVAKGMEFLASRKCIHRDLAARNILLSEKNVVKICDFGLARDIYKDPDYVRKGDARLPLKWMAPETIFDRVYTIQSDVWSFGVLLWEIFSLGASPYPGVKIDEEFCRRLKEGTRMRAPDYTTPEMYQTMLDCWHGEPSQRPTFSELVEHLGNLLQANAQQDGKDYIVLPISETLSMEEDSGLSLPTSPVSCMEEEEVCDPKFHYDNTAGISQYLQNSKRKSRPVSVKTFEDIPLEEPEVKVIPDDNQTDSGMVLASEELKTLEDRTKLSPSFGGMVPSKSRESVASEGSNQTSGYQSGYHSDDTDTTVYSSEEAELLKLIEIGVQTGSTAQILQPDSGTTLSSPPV
UniProt Q96GD4, whole entry: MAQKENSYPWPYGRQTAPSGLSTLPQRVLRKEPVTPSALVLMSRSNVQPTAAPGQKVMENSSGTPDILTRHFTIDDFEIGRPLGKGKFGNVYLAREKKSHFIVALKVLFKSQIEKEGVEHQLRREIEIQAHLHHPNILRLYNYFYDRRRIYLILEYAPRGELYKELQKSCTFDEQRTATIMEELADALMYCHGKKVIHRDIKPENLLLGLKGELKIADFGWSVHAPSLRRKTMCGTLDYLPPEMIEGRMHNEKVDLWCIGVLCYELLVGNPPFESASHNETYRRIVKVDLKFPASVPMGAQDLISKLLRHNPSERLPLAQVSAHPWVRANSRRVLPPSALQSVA
UniProt P07333, 20-972 limits assumed: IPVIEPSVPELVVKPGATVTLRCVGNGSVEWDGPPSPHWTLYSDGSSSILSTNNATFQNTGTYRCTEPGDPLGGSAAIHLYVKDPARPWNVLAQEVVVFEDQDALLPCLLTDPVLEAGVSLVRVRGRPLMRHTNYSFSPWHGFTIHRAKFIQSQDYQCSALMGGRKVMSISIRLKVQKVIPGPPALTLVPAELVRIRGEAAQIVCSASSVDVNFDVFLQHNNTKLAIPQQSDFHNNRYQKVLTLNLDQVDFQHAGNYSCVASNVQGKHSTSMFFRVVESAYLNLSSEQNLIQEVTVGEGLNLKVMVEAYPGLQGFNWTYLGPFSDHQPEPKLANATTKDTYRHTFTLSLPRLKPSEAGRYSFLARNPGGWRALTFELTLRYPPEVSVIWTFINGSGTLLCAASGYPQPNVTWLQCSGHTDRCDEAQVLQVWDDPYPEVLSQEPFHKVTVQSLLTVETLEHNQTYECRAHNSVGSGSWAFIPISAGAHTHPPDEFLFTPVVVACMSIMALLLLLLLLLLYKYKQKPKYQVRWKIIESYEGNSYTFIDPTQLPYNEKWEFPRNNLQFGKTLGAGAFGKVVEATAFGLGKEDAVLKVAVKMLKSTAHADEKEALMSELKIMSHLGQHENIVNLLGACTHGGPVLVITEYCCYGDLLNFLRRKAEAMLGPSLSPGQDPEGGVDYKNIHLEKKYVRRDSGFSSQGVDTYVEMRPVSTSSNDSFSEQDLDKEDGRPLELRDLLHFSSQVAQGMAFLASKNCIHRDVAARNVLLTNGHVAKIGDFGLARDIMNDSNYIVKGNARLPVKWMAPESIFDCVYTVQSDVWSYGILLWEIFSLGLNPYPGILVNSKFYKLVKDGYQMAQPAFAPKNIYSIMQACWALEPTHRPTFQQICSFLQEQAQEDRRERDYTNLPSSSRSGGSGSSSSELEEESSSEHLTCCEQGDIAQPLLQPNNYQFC
UniProt P09619, 33-1106 limits assumed: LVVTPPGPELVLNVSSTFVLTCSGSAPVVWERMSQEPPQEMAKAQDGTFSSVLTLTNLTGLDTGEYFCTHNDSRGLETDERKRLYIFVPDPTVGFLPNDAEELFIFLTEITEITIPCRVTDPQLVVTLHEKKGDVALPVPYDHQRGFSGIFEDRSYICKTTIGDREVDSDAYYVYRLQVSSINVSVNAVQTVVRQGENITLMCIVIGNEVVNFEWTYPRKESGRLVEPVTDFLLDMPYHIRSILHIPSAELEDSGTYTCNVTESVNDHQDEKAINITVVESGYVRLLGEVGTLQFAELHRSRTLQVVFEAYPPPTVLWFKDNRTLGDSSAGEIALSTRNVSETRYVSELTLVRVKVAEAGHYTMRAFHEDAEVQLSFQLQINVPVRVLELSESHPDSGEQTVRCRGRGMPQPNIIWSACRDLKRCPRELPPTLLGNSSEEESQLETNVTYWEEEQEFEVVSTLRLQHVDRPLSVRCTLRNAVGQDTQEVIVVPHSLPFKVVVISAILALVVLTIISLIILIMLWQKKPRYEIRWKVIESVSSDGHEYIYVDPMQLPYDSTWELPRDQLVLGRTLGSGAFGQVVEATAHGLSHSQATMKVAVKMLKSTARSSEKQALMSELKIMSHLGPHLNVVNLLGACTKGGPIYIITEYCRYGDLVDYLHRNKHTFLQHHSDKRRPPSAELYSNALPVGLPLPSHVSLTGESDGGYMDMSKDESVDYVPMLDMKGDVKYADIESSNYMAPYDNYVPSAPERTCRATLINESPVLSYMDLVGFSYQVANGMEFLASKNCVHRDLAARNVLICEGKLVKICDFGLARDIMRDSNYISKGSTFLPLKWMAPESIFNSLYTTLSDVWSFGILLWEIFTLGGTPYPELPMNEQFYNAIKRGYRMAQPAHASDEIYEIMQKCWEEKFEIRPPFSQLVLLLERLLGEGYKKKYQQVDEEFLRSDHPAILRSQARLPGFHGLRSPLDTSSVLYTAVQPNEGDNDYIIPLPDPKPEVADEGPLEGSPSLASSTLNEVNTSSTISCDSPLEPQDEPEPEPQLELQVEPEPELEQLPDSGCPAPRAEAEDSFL

Legend:
LCK [1] = target: T1, LCK (Homo sapiens, UniProt P06239); assay: Binding kinetics assay (surface plasmon resonance) LCK; conditions: SPR, 22 °C
Text: (§1) Binding Kinetics Assay wt-BTK, BTK C481S, LCK, FGFR1, FLT3, PDGFR-β, FMS, LYN, MEK1, AUR-B. ITK. VEGFR, EGFR, FGFR3, AXL, c-MET, SRC, YES, ABL, RET and IGFR1 (Surface Plasmon Resonance)
(§2) Streptavidin-coated chips (Cat. No. BR100531), disposables and maintenance kits for Biacore were purchased from Cytiva (Eindhoven, The Netherlands). Biotinylated wt-BTK enzym (Carna Biosciences, cat. no. 08-480-20N), BTK C481S (Carna Biosciences, cat. no. 08-417-20N), LCK (Carna Biosciences, cat. no. 08-470-20N), FGFR1 (Carna Biosciences, cat. no. 08-435-20N), FLT3 (Carna Biosciences, cat. no. 08-454-20N), PDGFR-β (Carna Biosciences, cat. no. 08-458-20N), FMS (Carna Biosciences, cat. no. 08-455-20N), LYN (Carna Biosciences, cat. no. 08-471-20N), MEK1 (Carna Biosciences, cat. no. 07-441-10-20N), AUR-B (Carna Biosciences, cat. no. 05-402-21N), ITK (Carna Biosciences, cat. no. 08-481-20N), VEGFR (Carna Biosciences, cat. no. 08-491-20N), EGFR (Carna Biosciences, cat. no. 08-415-20N), FGFR3 (Carna Biosciences, cat. no. 08-433-20N), AXL (Carna Biosciences, cat. no. 08-407-20N), c-MET (Carna Biosciences, cat. no. 08-451-20N), SRC (Carna Biosciences, cat. no. 08-473-20N), YES (Carna Biosciences, cat. no. 08-475-20N), ABL (Carna Biosciences, cat. no. 08-401-20N), RET (Carna Biosciences, cat. no. 08-459-20N) or IGFR1 (Carna Biosciences, cat. no. 08-441-20N) were immobilized on a streptavidin-coated chip to a level of about 8000 resonance units (RU) using Biacore buffer (50 mM Tris pH 7.5, 0.05% (v/v) Tween-20, 150 mM NaCl and 5 mM MgCl2)+1 mM TCEP. Remaining streptavidin was blocked with biocytin. Immobilization was performed at 4 °C. Subsequent assay steps were conducted at 22 °C. After changing buffer to Biacore buffer with 1% (v/v) dimethylsulfoxide (DMSO), a pre-run was performed for a period of at least 30 min at a flow rate of 30 μl/min to obtain a stable surface. The kinetic constants of the compounds were determined with single cycle kinetics with five consecutive injections with an increasing compound concentration with ranges of 3.16-316 nM. Experiments were performed with an association time of 100 s per concentration and a dissociation time of 1200 s, except for compounds with a long target residence time, such as irreversible inhibitors, where dissociation time was increased. To circumvent problems of mass transport limitation, a flow rate of 30 μl/min was used. A blank run with the same conditions was performed before the compound was injected. The SPR sensorgrams were analyzed with Biacore Evaluation Software by using a method of double referencing. First the reference channel was subtracted from the channel containing immobilized protein. Subsequently, the reference curve obtained with buffer injections was subtracted. The resulting curve was fitted with a 1:1 binding model. Compounds that bound according to an induced fit model were fitted with a two-state reaction model. The kinetic constants (ka, ka, KD) of duplicates were geometrically averaged. Target residence time (τ) for the 1:1 binding model was calculated from the dissociation constant kd with the formula T=1/kd. Target residence for an induced fit model was calculated as described (Tummino and Copeland, 2008).

LCK [2] = target: T1, LCK; assay: Biochemical kinase assay LCK (IMAP); conditions: read-out: IC50 value; LCK 2.9 nM, 4 μM ATP, 1 h pre-incubation, 2 h reaction
Method: Biochemical Kinase Assay LCK
To determine the inhibitory activity of compounds on LCK enzyme activity, the IMAP® assay (Molecular Devices) was used. Compounds were serially diluted in dimethylsulfoxide (DMSO) and subsequently in 4% DMSO in IMAP reaction buffer, which consists of 10 mM Tris-HCl, pH 15 7.5, 10 mM MgCl2, 0.01% Tween-20, 0.1% NaN3 and 1 mM freshly prepared dithiotreitol (DTT). Compound solution was mixed with an equal volume of full-length Lck enzyme (Carna Biosciences, cat. no. 08-170) in IMAP reaction buffer. After pre-incubation of 1 hour in the dark at room temperature, fluorescein-labeled MBP-derived substrate peptide (Molecular Devices, cat. no. RP 7123) was added, followed by ATP to start the reaction. Final enzyme concentration was 2.9 nM final substrate concentration 100 nM, and final ATP concentration was 4 μM. The reaction was allowed to proceed for 2 hours at room temperature in the dark. The reaction was stopped by quenching with IMAP progressive binding solution according to the protocol of the manufacturer (Molecular Devices). Fluorescein polarization was measured on an Envision multimode reader (Perkin Elmer, Waltham, MA, U.S.A.). IC50 were calculated using XLfit™5 software (ID Business Solutions, Ltd., Surrey, U.K.).

FGFR1 = FGFR1 (Homo sapiens, UniProt P11362); assay: Binding kinetics assay (surface plasmon resonance) FGFR1; conditions: FGFR1, SPR, 22 °C
Text: as §1
as §2, with “First the reference channel was subtracted from the channel containing immobilized protein. Subsequently, the reference curve obtained with buffer injections was subtracted. The resulting curve was fitted with a 1:1 binding model. Compounds that bound according to an induced fit model were fitted with a two-state reaction model. The kinetic constants (ka, ka, KD) of duplicates were geometrically averaged.” left out

FGFR3 = FGFR3 (Homo sapiens, UniProt P22607); assay: Binding kinetics assay (surface plasmon resonance) FGFR3; conditions: FGFR3, SPR, 22 °C
Text: as §1, §2

VEGFr = VEGFr (Homo sapiens, UniProt P35968); assay: Binding kinetics assay (surface plasmon resonance) VEGFR; conditions: SPR, 22 °C
Text: as §1
as §2, with “Immobilization was performed at 4 °C. Subsequent assay steps were conducted at 22 °C. After changing buffer to Biacore buffer with 1% (v/v) dimethylsulfoxide (DMSO), a pre-run was performed for a period of at least 30 min at a flow rate of 30 μl/min to obtain a stable surface.” left out, “Experiments were performed with an association time of 100 s per concentration and a dissociation time of 1200 s, except for compounds with a long target residence time, such as irreversible inhibitors, where dissociation time was increased. To circumvent problems of mass transport limitation, a flow rate of 30 μl/min was used. A blank run with the same conditions was performed before the compound was injected.” left out, “First the reference channel was subtracted from the channel containing immobilized protein. Subsequently, the reference curve obtained with buffer injections was subtracted. The resulting curve was fitted with a 1:1 binding model. Compounds that bound according to an induced fit model were fitted with a two-state reaction model. The kinetic constants (ka, ka, KD) of duplicates were geometrically averaged.” left out

AurB = AurB (Homo sapiens, UniProt Q96GD4); assay: Binding kinetics assay (surface plasmon resonance) AUR-B; conditions: SPR, 22 °C
Text: as §1, §2

Fms = Fms (Homo sapiens, UniProt P07333); assay: Binding kinetics assay (surface plasmon resonance) FMS; conditions: SPR, 22 °C
Text: as §1, §2

PDGFrB = PDGFrB (Homo sapiens, UniProt P09619); assay: Binding kinetics assay (surface plasmon resonance) PDGFR-β; conditions: SPR, 22 °C
Text: as §1, §2

For COc1cc(-c2nc3n4c(cnc(C)c24)/C=C/CCOCCC(=O)N[C@@H]2CC[C@@H]3C2)ccc1NC(=O)c1cc2c(OC)cccc2n1C, the Kd (LCK [1]) was < 5 nM and the IC50 (LCK [2]) was < 5 nM.

In the case of COc1cc(-c2nc3n4c(cnc(N)c24)/C=C/CCOCCC(=O)N[C@@H]2CC[C@@H]3C2)ccc1NC(=O)c1cc2c(OC)cccc2n1C, the Kd (LCK [1]) is reported as < 5 nM and the IC50 (LCK [2]) is reported as < 5 nM.

With COc1cc(C#Cc2nn3c4c(cnc(N)c24)/C=C/CCOCCC(=O)N[C@@H]2CCC[C@@H]3C2)cc(OC)c1 the Kd (FGFR1) was < 5 nM, the “Target residence time Tau (τ)” value (FGFR1) was “A (τ between 0.2 h and 1 h)” and the Kd (FGFR3) was 5 to 50 nM. For the same compound, the “Target residence time Tau (τ)” value (FGFR3) was “A (τ between 0.2 h and 1 h)”.

In the case of C[C@@H]1CCn2nc(-c3ccc(NC(=O)Nc4cccc(F)c4)cc3)c3c(N)ncc(c32)/C=C/CCOCCC(=O)N1, the Kd (VEGFr) is reported as < 5 nM, the Kd (AurB) is reported as 5 to 50 nM and the Kd (Fms) is reported as 5 to 50 nM. For the same compound, the “Target residence time Tau (τ)” value (Fms) was “B (τ between 1 and 3 h)”, the Kd (PDGFrB) was 5 to 50 nM and the “Target residence time Tau (τ)” value (PDGFrB) was “A (τ between 0.2 h and 1 h)”.
